Tests used:
[1] = biological target: human sodium channels Nav 1.7 (Homo sapiens, UniProt Q15858); experiment: Automated whole-cell voltage-clamp (ScreenPatch 384P) sodium current block in CHO cells expressing Nav 1.7; conditions: read-out: Nav1.7 IC50; CHO cells stably expressing human Nav 1.7; whole cell patch clamp, inactivation step -40 mV 8 s, test step 0 mV (TP1A), room temperature; mean where tested in two or more assays
Description: (§1) Biological assays were performed on Chinese hamster ovary (CHO) cells that express human sodium channels Nav 1.8 or Nav 1.7 in a stable manner.
(§2) The experimental protocol voltage-clamp using the whole cell configuration was established on the automated ScreenPatch© 384P platform (SP384PE, Nanion Technologies, Livingston, NJ) and the results were recorded with a Nanion 384-well Patch Clamp chip (NPC) (Nanion Technologies, Livingston, NJ).
(§3) Formula I compounds were diluted in eight concentrations in the extracellular solution composed of saline saline solution, buffered with HEPES (mM): NaCl, 137; KCl, 4; CaCl2, 3.8; MgCl2, 1; HEPES, 10; Glucose, 10; pH 7.4. […]
(§4) The protocol was repeated at a frequency of 0.05 Hz and the amplitude of the current was quantified throughout the recording of the TP1A phase. The variation in the amplitude of the peak current was evaluated according to the formula described below, after exposing the cells expressing the channels to each concentration of the different compounds: […]
(§5) wherein [Test] represents the concentration of the molecule evaluated, CI50 is the concentration of the compound that generates half of the maximum inhibition, N is the Hill coefficient, and % Block′ is the percentage of sodium channel current (Nav 1.8 and Nav 1.7) blocked at each concentration of the molecule evaluated. […]

Amino acid sequences for entries named in this document (tags omitted).
UniProt Q15858, whole entry: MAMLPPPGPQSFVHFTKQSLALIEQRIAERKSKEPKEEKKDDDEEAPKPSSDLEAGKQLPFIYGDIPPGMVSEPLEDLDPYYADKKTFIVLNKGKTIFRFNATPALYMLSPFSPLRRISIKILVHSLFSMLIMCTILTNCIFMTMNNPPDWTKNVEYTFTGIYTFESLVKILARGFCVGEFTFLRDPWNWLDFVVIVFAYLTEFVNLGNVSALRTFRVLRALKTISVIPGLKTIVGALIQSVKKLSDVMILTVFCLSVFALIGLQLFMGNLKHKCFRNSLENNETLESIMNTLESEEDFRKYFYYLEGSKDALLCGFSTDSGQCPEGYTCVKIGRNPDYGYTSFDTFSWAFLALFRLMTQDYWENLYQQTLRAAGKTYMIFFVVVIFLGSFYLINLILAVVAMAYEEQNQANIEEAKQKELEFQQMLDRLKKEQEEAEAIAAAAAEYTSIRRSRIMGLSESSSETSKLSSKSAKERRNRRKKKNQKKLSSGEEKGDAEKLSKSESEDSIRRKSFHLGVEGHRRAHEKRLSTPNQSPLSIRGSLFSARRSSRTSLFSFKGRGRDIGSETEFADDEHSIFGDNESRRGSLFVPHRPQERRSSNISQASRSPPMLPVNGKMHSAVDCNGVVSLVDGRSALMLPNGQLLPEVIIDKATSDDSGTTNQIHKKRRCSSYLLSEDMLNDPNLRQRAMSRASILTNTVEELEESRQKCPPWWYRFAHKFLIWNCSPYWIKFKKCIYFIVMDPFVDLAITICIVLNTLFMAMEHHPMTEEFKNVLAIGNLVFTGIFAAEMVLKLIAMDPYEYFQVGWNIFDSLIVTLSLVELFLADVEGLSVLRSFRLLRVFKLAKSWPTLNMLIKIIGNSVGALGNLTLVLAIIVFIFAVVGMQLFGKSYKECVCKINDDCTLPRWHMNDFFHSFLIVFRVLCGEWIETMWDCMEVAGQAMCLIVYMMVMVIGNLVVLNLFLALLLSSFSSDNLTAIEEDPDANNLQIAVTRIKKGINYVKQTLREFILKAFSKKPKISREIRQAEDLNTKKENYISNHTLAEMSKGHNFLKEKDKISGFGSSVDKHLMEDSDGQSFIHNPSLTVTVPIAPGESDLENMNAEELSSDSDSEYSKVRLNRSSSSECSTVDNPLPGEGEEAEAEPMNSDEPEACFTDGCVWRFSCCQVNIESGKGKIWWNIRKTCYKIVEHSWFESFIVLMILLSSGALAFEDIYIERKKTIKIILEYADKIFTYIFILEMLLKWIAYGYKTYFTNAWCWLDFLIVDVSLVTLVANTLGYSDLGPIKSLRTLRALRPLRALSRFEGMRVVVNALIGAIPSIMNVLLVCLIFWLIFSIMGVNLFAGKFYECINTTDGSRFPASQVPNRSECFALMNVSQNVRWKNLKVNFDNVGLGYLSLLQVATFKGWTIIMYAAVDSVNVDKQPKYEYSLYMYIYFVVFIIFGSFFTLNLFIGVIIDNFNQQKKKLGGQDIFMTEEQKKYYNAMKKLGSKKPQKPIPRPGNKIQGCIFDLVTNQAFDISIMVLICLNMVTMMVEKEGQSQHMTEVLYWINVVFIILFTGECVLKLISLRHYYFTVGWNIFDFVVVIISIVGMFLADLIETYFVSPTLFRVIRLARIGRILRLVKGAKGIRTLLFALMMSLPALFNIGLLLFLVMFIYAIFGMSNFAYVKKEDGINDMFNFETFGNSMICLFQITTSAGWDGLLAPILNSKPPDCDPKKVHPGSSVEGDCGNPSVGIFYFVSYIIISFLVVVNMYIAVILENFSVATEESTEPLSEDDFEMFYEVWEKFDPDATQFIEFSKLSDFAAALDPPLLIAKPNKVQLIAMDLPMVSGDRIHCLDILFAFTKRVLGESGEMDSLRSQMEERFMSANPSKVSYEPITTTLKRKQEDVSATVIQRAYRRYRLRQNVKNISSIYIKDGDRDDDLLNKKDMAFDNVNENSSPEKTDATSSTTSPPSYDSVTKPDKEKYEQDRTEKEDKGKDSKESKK
UniProt Q9Y5Y9, whole entry: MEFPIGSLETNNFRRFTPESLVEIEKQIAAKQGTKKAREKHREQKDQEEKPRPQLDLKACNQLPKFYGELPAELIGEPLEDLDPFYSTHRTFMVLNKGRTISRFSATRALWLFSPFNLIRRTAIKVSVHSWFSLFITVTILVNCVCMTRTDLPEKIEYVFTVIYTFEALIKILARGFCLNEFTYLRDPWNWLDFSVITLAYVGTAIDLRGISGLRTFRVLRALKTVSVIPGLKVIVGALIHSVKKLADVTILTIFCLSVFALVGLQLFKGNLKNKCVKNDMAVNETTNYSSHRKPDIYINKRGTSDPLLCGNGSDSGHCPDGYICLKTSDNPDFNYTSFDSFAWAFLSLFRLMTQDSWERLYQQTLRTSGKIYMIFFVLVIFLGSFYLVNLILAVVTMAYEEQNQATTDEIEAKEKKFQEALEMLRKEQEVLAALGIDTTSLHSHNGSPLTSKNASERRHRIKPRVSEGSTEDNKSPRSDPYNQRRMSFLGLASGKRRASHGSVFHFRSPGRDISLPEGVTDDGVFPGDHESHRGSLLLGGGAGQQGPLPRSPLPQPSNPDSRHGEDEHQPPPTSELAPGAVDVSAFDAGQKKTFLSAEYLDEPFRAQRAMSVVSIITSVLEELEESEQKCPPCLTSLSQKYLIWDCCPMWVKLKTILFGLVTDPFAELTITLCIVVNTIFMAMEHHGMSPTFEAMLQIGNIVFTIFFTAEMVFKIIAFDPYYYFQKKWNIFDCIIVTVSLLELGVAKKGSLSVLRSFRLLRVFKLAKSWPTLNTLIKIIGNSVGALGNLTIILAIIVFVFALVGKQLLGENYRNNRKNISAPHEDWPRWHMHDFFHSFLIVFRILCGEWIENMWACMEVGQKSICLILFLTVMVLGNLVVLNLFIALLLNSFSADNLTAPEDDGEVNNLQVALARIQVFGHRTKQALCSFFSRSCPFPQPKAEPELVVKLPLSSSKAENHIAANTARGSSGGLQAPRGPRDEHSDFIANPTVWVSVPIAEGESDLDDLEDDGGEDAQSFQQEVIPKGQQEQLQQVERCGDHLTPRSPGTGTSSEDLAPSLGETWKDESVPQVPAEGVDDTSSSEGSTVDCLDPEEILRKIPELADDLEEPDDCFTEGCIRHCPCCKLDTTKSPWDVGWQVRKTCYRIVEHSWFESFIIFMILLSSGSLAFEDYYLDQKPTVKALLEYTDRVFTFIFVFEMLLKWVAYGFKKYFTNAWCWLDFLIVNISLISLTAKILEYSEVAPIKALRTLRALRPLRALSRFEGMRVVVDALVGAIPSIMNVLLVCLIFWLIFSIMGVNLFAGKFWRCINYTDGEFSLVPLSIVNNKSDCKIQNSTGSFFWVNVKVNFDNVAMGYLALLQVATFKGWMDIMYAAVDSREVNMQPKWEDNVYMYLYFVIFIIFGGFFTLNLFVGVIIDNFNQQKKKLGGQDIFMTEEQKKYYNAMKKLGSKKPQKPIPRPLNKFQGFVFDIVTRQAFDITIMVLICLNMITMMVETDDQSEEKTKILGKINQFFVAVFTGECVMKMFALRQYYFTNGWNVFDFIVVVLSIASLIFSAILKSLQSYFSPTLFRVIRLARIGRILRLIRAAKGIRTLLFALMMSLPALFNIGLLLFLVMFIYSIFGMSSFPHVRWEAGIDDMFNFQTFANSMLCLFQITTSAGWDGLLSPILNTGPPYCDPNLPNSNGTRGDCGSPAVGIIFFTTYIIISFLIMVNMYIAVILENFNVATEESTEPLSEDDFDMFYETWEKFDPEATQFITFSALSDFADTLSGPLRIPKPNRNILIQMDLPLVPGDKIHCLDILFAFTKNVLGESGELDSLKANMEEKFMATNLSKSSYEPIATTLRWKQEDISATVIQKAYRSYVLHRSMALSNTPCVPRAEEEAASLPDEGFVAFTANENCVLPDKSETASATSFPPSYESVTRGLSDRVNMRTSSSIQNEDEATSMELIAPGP

[2] = biological target: human sodium channels Nav 1.8 (Homo sapiens, UniProt Q9Y5Y9); experiment: Automated whole-cell voltage-clamp (ScreenPatch 384P) sodium current block in CHO cells expressing Nav 1.8; conditions: read-out: Nav1.8 IC50; CHO cells stably expressing human Nav 1.8; whole cell patch clamp, inactivation step -40 mV 8 s, test step 10 mV (TP1A), room temperature; mean where tested in two or more assays
Description: as §1, §2, §3, §4, §5

SMILES | IC50 [1] [nM] | IC50 [2] [nM]
COc1cc(CNNC(=O)c2nccc(-c3ccc(Cl)cc3)n2)cc(OC)c1 | > 1000 | > 1000
COc1cc(CNNC(=O)c2cncc(-c3ccc(OC(C)C)nc3)n2)cc(OC)c1 | 500 to 1000 | < 500
